Reference: PMC9518283 (Journal of Enzyme Inhibition and Medicinal Chemistry, 2022)

The chains behind the UniProt entries cited, without tags or fusion partners.
UniProt P21397, whole entry: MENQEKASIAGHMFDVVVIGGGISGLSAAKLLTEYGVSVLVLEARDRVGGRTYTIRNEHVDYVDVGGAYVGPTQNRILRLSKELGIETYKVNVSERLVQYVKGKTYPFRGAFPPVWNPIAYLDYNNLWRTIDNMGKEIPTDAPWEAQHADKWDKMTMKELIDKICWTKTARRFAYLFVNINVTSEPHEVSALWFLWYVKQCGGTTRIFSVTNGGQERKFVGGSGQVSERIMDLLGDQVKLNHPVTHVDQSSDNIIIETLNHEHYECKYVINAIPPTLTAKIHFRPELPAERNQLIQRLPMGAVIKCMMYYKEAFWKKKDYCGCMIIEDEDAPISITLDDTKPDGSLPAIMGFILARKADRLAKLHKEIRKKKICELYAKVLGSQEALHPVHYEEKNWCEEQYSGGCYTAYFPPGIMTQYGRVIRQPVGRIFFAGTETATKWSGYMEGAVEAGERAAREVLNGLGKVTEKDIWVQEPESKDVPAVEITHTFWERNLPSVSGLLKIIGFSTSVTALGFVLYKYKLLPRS

Biological target: T1, hMAO-A (Homo sapiens, UniProt P21397)
T1 construct: purchased Sigma-Aldrich (St. Louis, MO, USA)
Assay: hMAO-A inhibition, kynuramine substrate, HPLC-MS
Assay type: biochemical
Conditions: residual enzyme activity, compound at 1 µM
Experimental: To confirm the multipotent biological profile of target compounds 1 − 15, 20 − 28, the inhibitory activity towards both isoforms of hMAO was determined in vitro. Gained results are listed in Table 2 as the residual activity of the enzyme after inhibition by the studied compound at two concentrations (10 and 1 μM).
The hMAO-A and hMAO-B enzymes were purchased from Sigma-Aldrich (St. Louis, MO, USA). […]. The mixture was pre-incubated at 37 °C for 5 min and subsequently substrate kynuramine was added to the final concentration of 60 µM in the case of hMAO-A and 30 µM in the case of hMAO-B. The final volume of reaction mixture was 0.1 mL. The whole reaction mixture was incubated at 37 °C for 30 min. The reaction was stopped by the addition of 200 µL acetonitrile/methanol mixture (ratio 1:1) and cooling down to 0 °C. The sample was then centrifuged (16.500× g) for 10 min. The deamination product of kynuramine formed during the enzymatic reaction 4-hydroxyquinoline (4-HQ) was determined by HPLC–MS on a 2.1 mm × 50 mm, 1.8 µm Zorbax RRHD Eclipse plus C18 column (Agilent) by using a 6470 Series Triple Quadrupole mass spectrometer (Agilent) (electrospray ionisation – positive ion mode). Three MRM transitions were followed for kynuramine (165.1 = > 30.2, 165.1 = > 118.0, 165.1 = > 136.0) and 4-HQ (146.1 = > 51.1, 146.1 = > 77.0, 146.1 = > 91.0). […]

SMILES: C#CCN(C)CCCOc1ccc(Cl)cc1Cl [Clorgyline, reference compound]
- % of MAO-A activity (1 µM): 43%
